Measured values reported in patent publication US20060252813A1, “Apparatus for curing a composite laminate” (priority 2002, published 2006).

Sequences of proteins named here, by UniProt entry; tags and fusion partners are left off. A change or cut given only in a name is not applied to a line headed by its entry.
UniProt P0A9L5: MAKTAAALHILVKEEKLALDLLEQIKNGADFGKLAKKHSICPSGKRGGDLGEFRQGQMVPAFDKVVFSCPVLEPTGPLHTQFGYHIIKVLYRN

biological target: EcParvulin (Escherichia coli, UniProt P0A9L5); assay: protease-coupled PPIase assay, EcParvulin; format: biochemical; conditions: 20 nM EcParvulin; substrate Suc-Ala-Phe-Pro-Phe-pNA, α-chymotrypsin; 35 mM HEPES pH 7.8, 6° C; read-out: Target T-5 (EcParv), IC50 class

| SMILES | IC50 [µM] |
| --- | --- |
| CCNC(=S)NC(Cc1ccc2ccccc2c1)C(=O)NCCC#N (centres unmarked) [Compound 1] | > 100 |
| N#CCCNC(=O)[C@H](Cc1csc2ccccc12)NC(=S)Nc1ccc(SC(F)(F)F)cc1 [Compound 2] | 50 to 100 |
| N#CCCNS(=O)(=O)Cc1ccccc1 [Compound 3] | > 100 |
| CN(C)c1ccc(N=Nc2ccc(S(=O)(=O)NCCC#N)cc2)cc1 [Compound 7] | 10 to 50 |
| CC(=O)NC(Cc1cccc2ccccc12)C(=O)NC(Cc1ccccc1C#N)C(N)=O (centres unmarked) [Compound 8] | 5 to 10 |
